Apparent affinities of Ab-14 variants for a coronavirus HR2 peptide

From the AlphaSeq antibody data of Li et al. 2023 (doi:10.1038/s41467-023-39022-2), copy in the FLAb collection.

Target peptide (SARS-CoV-2 spike, HR2 region): PDVDLGDISGINAS

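The variants were designed computationally from a first round of random CDR variants and then made and measured. Several design methods are mixed in this list. Affinity was read by AlphaSeq, a pooled yeast mating assay with surface-displayed partners. After mating in shaken culture at 30 °C for 16 h, diploids were selected and their barcode pairs sequenced. Each replicate has its own calibration line, from reference interactions of the BCL2 family. There are six technical replicates.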

Parent: Ab-14, a human scFv built as VH, a 15-residue (Gly4Ser)3 linker, VL. Only the CDRs of the light chain vary.
VH: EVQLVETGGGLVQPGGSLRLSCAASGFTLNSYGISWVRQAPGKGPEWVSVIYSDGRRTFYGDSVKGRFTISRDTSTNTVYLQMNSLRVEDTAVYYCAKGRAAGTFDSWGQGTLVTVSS
VL: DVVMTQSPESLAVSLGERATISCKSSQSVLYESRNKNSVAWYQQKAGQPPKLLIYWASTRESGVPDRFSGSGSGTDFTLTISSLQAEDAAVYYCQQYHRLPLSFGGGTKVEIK

The parent's light chain CDRs are KSSQSVLYESRNKNSVA, WASTRES, QQYHRLPLS; each variant's own CDRs replace them letter for letter. Scale: log10 of Kd in nM, estimated from mating counts; low values are strong binders. Averages over replicates are reported, and they cover detected replicates only. "no signal" marks a missing value. The strain was present, yet no cells mated with the target were sequenced in any replicate, which points to weak or no binding. A sequence measured in both rounds can read differently, since the two assays cover different ranges.

{"CDR-L1": "NLYQSMNFLGRVMNSIA", "CDR-L2": "DASTVPD", "CDR-L3": "QQYHRLPLS", "mean, log10 nM": "0.74", "detected": "6 of 6", "signal with controls": "1 of 18"}
{"CDR-L1": "KSSQSMLYESRNKNSVA", "CDR-L2": "WASTRES", "CDR-L3": "AQYHRLPLS", "mean, log10 nM": "no signal", "detected": "0 of 6", "signal with controls": "0 of 18"}
{"CDR-L1": "KSSQSVPYESRNVNSVA", "CDR-L2": "KASTRES", "CDR-L3": "QQYHRLPLS", "mean, log10 nM": "0.27", "detected": "6 of 6", "signal with controls": "2 of 18"}
{"CDR-L1": "KSSISVLDYDRNKNSVA", "CDR-L2": "WASERES", "CDR-L3": "QQYHRLPLS", "mean, log10 nM": "1.10", "detected": "6 of 6", "signal with controls": "0 of 18"}
{"CDR-L1": "KLSQSWLYESRNKNNVA", "CDR-L2": "NASKRES", "CDR-L3": "QQYHRLPLS", "mean, log10 nM": "-0.54", "detected": "6 of 6", "signal with controls": "1 of 18"}
{"CDR-L1": "KLSMLTEMEHKNRNSVA", "CDR-L2": "ELVTRMS", "CDR-L3": "QQYNRLPLS", "mean, log10 nM": "0.50", "detected": "6 of 6", "signal with controls": "1 of 18"}
{"CDR-L1": "KSSQVVLFESRNKNSVA", "CDR-L2": "DASTGES", "CDR-L3": "QQYHRLPLS", "mean, log10 nM": "2.90", "detected": "1 of 6", "signal with controls": "1 of 18"}
{"CDR-L1": "SLGLVTMLEYANRNNVA", "CDR-L2": "NNSTREK", "CDR-L3": "QQYDRLPLS", "mean, log10 nM": "1.23", "detected": "6 of 6", "signal with controls": "0 of 18"}
{"CDR-L1": "KFMYSGEYQMHEQNNIA", "CDR-L2": "QGNIKTV", "CDR-L3": "QQYFRLPIS", "mean, log10 nM": "0.41", "detected": "6 of 6", "signal with controls": "1 of 18"}
{"CDR-L1": "KLSQSDLYESRNKNSVA", "CDR-L2": "NASQRLS", "CDR-L3": "QQYHRLPLS", "mean, log10 nM": "0.08", "detected": "6 of 6", "signal with controls": "5 of 18"}
{"CDR-L1": "KSSWSELYESGNKNSVA", "CDR-L2": "HASTRED", "CDR-L3": "QQYHRLPLS", "mean, log10 nM": "0.12", "detected": "6 of 6", "signal with controls": "1 of 18"}
{"CDR-L1": "IITQSVMQESRNKRNVA", "CDR-L2": "NTSERES", "CDR-L3": "QQYDRLPLI", "mean, log10 nM": "1.04", "detected": "6 of 6", "signal with controls": "1 of 18"}
{"CDR-L1": "KFSQQMLYESRNKNNVA", "CDR-L2": "HASHRES", "CDR-L3": "QQYHRLPLS", "mean, log10 nM": "0.17", "detected": "6 of 6", "signal with controls": "2 of 18"}
{"CDR-L1": "QLAIDRLQEYKMGDAIA", "CDR-L2": "GKTTRED", "CDR-L3": "QQYARLPLS", "mean, log10 nM": "0.28", "detected": "6 of 6", "signal with controls": "3 of 18"}
{"CDR-L1": "TISQSTYWESFNKNNVA", "CDR-L2": "QTSTRLE", "CDR-L3": "QDYDRLPLS", "mean, log10 nM": "3.05", "detected": "5 of 6", "signal with controls": "4 of 18"}
{"CDR-L1": "KSSQSVLMESRNCNSVA", "CDR-L2": "DASTRES", "CDR-L3": "QQYHRLPLS", "mean, log10 nM": "0.08", "detected": "6 of 6", "signal with controls": "1 of 18"}
{"CDR-L1": "KLSQSELYESRNFNSVA", "CDR-L2": "NASTRES", "CDR-L3": "QQYHRLPLS", "mean, log10 nM": "0.29", "detected": "6 of 6", "signal with controls": "1 of 18"}
{"CDR-L1": "MMSSLMGYESRHINNVA", "CDR-L2": "QTSTRES", "CDR-L3": "QQYDRLPLI", "mean, log10 nM": "1.01", "detected": "6 of 6", "signal with controls": "0 of 18"}
{"CDR-L1": "TLYGLSVSMSKNTNNVA", "CDR-L2": "EMTTRED", "CDR-L3": "QQYDRLPLI", "mean, log10 nM": "1.53", "detected": "6 of 6", "signal with controls": "0 of 18"}
{"CDR-L1": "KISYMGEVFSTNHSSIA", "CDR-L2": "QASTREQ", "CDR-L3": "QQYHRLPLS", "mean, log10 nM": "1.00", "detected": "6 of 6", "signal with controls": "4 of 18"}
{"CDR-L1": "MIAQALRGVGRNKNSVA", "CDR-L2": "NAQTRES", "CDR-L3": "QHYHRLPLS", "mean, log10 nM": "2.04", "detected": "2 of 6", "signal with controls": "1 of 18"}
{"CDR-L1": "NFSMSAATFVNEWSSIA", "CDR-L2": "DAEISYD", "CDR-L3": "QQYHRLPLV", "mean, log10 nM": "2.79", "detected": "5 of 6", "signal with controls": "3 of 18"}

4 of these entries, quoted again:

{"CDR-L1": "MMSSLMGYESRHINNVA", "CDR-L2": "QTSTRES", "CDR-L3": "QQYDRLPLI", "mean, log10 nM": "1.01", "detected": "6 of 6", "signal with controls": "0 of 18"}
{"CDR-L1": "IITQSVMQESRNKRNVA", "CDR-L2": "NTSERES", "CDR-L3": "QQYDRLPLI", "mean, log10 nM": "1.04", "detected": "6 of 6", "signal with controls": "1 of 18"}
{"CDR-L1": "KLSQSDLYESRNKNSVA", "CDR-L2": "NASQRLS", "CDR-L3": "QQYHRLPLS", "mean, log10 nM": "0.08", "detected": "6 of 6", "signal with controls": "5 of 18"}
{"CDR-L1": "KSSQSVLMESRNCNSVA", "CDR-L2": "DASTRES", "CDR-L3": "QQYHRLPLS", "mean, log10 nM": "0.08", "detected": "6 of 6", "signal with controls": "1 of 18"}

The parent sequence was in this pool as ten entries: three were never detected, three once, and four in most replicates, with averages from 0.34 to 2.37. The authors' rule: three or more of the six replicates give a measured affinity, fewer mean a poor binder. Background: pairings of all light chain designs with three empty control strains gave a value in 4% of cases (median 2.64, 5th percentile 1.59). Values in that range, when seen in few replicates, are hard to tell from nonspecific mating. For each scFv, signals with the empty controls are counted beside the result.